The nature of data set [1]: Viscosity of saturated or unsaturated aqueous solutions of APIs, rotational viscometer (Brooksfield). It is filed as physicochemical. Here is the method:
The viscosities of saturated aqueous solutions or aqueous solutions with different weight percentage are measured with Rotational viscometers (Brooksfield, USA) at constant temperature 25° C., and the rotation speed is 5-100 rpm.
(§1) The viscosities of saturated aqueous solutions or aqueous solutions with different weight percentage of the compounds are measured with Rotational viscometers (Brooksfield, USA) at 25° C.

The nature of data set [2]: Tablet-forming ability of APIs (self-granulation with water, hardness and friability of tablets). The following applies: tablets of 99% API and 1% magnesium stearate, about 100 mg, wet granulated with purified water. It counts as physicochemical. Here is the method: as §1
Each API listed in Table 1-1 is separately weighed […] and wet granulated in a high shear mixer using purified water. The wet granules are dried in an oven and sieved with 20 mesh screen. Each of the dried granules is separately transferred into a V-blender, and mixed with 5 g of magnesium stearate. The obtained mixture is compressed into tablets. Every tablet weighs about 100 mg, and contains magnesium stearate and an individual API.

In the case of L-arginine α-ketoglutarate, the “Unsaturated aqueous solution at 25° C. Viscosity (cP)” value in data set [1] (aqueous solution, weight percent 55%) is given as roughly 11 cP. For the same substance, the “Saturated aqueous solution at 25° C. Viscosity (cP)” value in data set [1] (saturated aqueous solution) is roughly 30 cP. The “The tablet-forming ability Hardness of tablets (kp)” value in data set [2] was 3-8 kp.

Values taken from US20150359795A1, “HIGH DRUG LOAD PHARMACEUTICAL COMPOSITIONS WITH CONTROLLABLE RELEASE RATE AND PRODUCTION METHODS THEREOF” (Pharmosa Limited, priority 2014, published 2015).
